Test system: HRV-16
Assay: HRV-16 infection in DPP4 transfected cells with Alogliptin DPP4 inhibitor
Format: cell-based, human rhinovirus-16
Conditions: 0.1 nM, InM and 10 nM of DPP4 inhibitor vs control

In the case of `Cn1c(=O)cc(N2CCC[C@@H](N)C2)n(Cc2ccccc2C#N)c1=O` [DPP4 inhibitor, Alogliptin], the “HRV-16 infection (mRNA) in DPP4 transfected and HRV-16 infected bronchial epithelial cells” value is reported as “reverses DPP4 downregulation of bronchial epithelial cells (BEC) HRV-16 Infection”.

Source: patent US20250122567A1, “Methods of Identifying and Treating Subjects having Inflammatory Subphenotypes of Asthma” (National Jewish Health, priority 2015, published 2025)
